Values quoted from earlier work in patent US20250121105A1, “METHODS FOR TREATING CANCER USING COMBINATIONS OF PARP INHIBITORS AND ANTIBODY RADIOCONJUGATES” (ACTINIUM PHARMACEUTICALS, INC., priority 2019, published 2025).

Sequences of proteins named here, by UniProt entry; tags and fusion partners are left off.
UniProt P09874, whole entry: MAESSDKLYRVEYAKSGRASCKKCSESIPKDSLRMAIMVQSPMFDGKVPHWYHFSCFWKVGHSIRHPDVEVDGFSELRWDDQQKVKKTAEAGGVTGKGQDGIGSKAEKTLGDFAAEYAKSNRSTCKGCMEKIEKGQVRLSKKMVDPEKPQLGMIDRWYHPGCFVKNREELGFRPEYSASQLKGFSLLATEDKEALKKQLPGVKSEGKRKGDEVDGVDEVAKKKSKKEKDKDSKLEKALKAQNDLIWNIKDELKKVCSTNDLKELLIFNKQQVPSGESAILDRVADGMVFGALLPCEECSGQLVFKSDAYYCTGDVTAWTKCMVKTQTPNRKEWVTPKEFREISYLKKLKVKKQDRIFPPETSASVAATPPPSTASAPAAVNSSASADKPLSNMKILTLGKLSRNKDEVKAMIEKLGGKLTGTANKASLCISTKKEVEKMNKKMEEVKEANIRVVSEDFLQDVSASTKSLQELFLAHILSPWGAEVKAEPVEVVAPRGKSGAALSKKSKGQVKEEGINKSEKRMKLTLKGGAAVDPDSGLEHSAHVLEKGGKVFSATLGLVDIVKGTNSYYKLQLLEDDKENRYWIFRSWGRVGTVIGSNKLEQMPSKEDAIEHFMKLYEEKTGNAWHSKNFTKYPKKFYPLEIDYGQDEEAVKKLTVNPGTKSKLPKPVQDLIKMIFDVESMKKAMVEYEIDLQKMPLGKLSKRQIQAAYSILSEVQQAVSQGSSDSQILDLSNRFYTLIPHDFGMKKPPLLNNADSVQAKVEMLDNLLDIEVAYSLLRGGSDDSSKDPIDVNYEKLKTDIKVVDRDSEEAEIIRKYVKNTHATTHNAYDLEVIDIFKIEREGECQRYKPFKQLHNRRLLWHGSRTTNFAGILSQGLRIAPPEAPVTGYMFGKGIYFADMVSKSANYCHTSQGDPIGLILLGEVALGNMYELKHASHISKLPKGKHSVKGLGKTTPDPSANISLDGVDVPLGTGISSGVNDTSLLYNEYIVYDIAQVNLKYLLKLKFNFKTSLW

Target: PARP1 (Homo sapiens, UniProt P09874)
Conditions: compared with veliparib

SMILES: Cn1ncnc1[C@H]1c2n[nH]c(=O)c3cc(F)cc(c23)N[C@@H]1c1ccc(F)cc1 [talazoparib]
- capability to trap PARP1 on DNA: more effective in trapping PARP1 than are veliparib
